Test results from US7655392B2, “Quenching methods for red blood cell inactivation process” (priority 2004, dated 2010).

Assay: pH of quencher stock and of RBC mixture
Assay type: physicochemical
Conditions: 600 mM in 8% dextrose + 2 eq. base, room temperature
Method: The effect of various quenching conditions on the pH of a red blood cell composition was determined for various treatment conditions. The quencher solutions were prepared at a concentration of 600 mM in 8% dextrose monohydrate. […] Glutathione was assessed at 2 mM (acidic) or 20 mM (2 eq. of base). […] The pH of the quencher solution, either unmodified or neutralized, was measured using a standard Epoxy Calomel electrode (Beckman Instruments) at room temperature. […] The samples were mixed and the pH at room temperature was measured using the same electrode as described above.
In these, the appropriate amount of 600 mM stock was added, mixed with an appropriate volume of 8% dextrose to provide the same volume addition to each RBC sample where in one study, with varied glutathione concentrations, the pH was measured after adding glutathione and after adding PIC-1. […] Similar samples were also assessed for the inactivation of S. epidermidis. […] For gel card analysis, after incubation, the RBC were washed in BBS and were diluted in BBS to a final hematocrit of 4%. A 25 μL aliquot of each was mixed with 15 μL of rabbit polyclonal anti-acridine sera diluted either 1:4 or 1:100 in BBS and the mixture was incubated at 37° C. for 30 minutes. The cells were subsequently washed with 1.5 mL BBS. […]

With cysteine-glycine [CysGly] the “pH of stock quencher” value was 8.5.
